Measurements reported in patent publication US8778966B2, “Quinolinone derivatives as PARP and tank inhibitors” (Janssen Pharmaceutica, NV, priority 2007, dated 2014).

What was measured:
PC-3 cells = test: Antiproliferative activity, Alamar Blue assay, PC-3 cells
Description: Human prostate cancer PC-3 cells obtained from the ATCC were cultured in HAM′S F12 medium supplemented with 1 mM Sodium Pyruvate, 1.5 g/L Sodium Bicarbonate, 50 μg/ml gentamicin, non-essential amino acids and 10% fetal calf serum.
(§1) Resazurin was purchased from Aldrich (Prod. No. 199303). Potassium ferrocyanide, potassium ferricyanide, KH2PO4 and K2HPO4 were purchased from Sigma (Prod. Nos. P9387, P8131, P5655 and P8281, respectively).
(§2) Potassium Phosphate Buffer 0.1 M (PPB) was made as follows: 2.72 gram KH2PO4 and 13.86 gram K2HPO4 were dissolved in 500 ml milli-Q H2O, the pH was adjusted to pH 7.4 and the volume was brought to 1 litre with milli-Q H2O; the buffer was filter sterilised and stored at room temperature. Resazurin stock solution (PPB-A) was prepared fresh by dissolving 45 mg resazurin in 15 ml PBS. 30 mM potassium ferricyanide (PPB-B) was prepared by dissolving 0.987 gram potassium ferricyanide in 100 ml PPB. 30 mM potassium ferrocyanide (PPB-C) was prepared by dissolving 1.266 gram potassium ferrocyanide in 100 ml PPB.
(§3) Mixture of PPB-A, PPB-B and PPB-C was prepared by mixing equal volumes of the respective solutions. Resazurin work solution (herein termed “Alamar Blue” solution) was prepared by diluting said mixture 20×(vol/vol) in PPB and filter sterilising; the Alamar Blue solution could be kept at 4° C. for a maximum of 2 weeks.
(§4) For experiments in 384 wells plates the cells were seeded at a density of 4.5×10^3 cells/ml in Falcon 384-well culture plates (Life Technologies, Merelbeke, Belgium), black with clear bottom, in 45 μl culture medium. Cells were allowed to adhere to plastic for 24 hr. […] The fluorescence intensity was measured for each well on a Fluorescence plate reader (Fluorskan, Labsystems, 540 nm excitation and 590 nm emission)
(§5) The antiproliferative activity was calculated as percentage of remaining viable cells in treated versus control (untreated cells) conditions. […] Herein the effects of test compounds are expressed as pIC50 (the negative log value of the IC50-value) (see Table 2).

HCT116 cells = test: Antiproliferative activity, Alamar Blue assay, HCT116 cells; design: key: pIC50 = -log IC50 (IC50: conc. reducing growth to 50% of control)
Description: Human colon carcinoma HCT116 cells obtained from the ATCC were cultured in McCoy's 5 A medium supplemented with 2 mM L-Glutamine, 50 μg/ml gentamicin and 10% heat inactivated fetal calf serum.
as §1, §2, §3, §4, §5

tubulin = test: Tubulin polymerization assay; conditions: tested at 20 μM and 5 μM
Description: The tubulin polymerization assay is an adaptation of an assay originally described by Bonne, D. et al. (J. Biol. Chem., 1985, 260:2819-25). The assay kit was purchased from Cytoskeleton, Inc. (catalogue number BK011) and the assay was performed as described by the supplier with the following modifications. The assay was run in a 384-well black Proxiplate (Perkin Elmer) and volumes were adapted accordingly. The reactions were carried out in a final volume of 10 μl. Compounds were added to 25 μl of the reaction mix in 96-well PP plates (Corning) on ice and 10 μl of this mixture was dispensed into duplicates of the 384-well Proxiplates pre-warmed to 37° C. in a Fluoroskan Ascent plate reader (Thermo Scientific). Fluorescence measurements were taken every minute for one hour. The maximum slope of each well was determined (linear regression through 4 consecutive points) and polymerization was calculated as a percentage of polymerization observed in the absence of compound. Compounds were first measured at a concentration of 20 μM and then at 5 μM for those showing more than 50% inhibition at 20 μM as compared to the polymerization observed in the absence of compound. Results are reported in Table F-2 as scores defined as: a compound showing 0 to 50% inhibition at 20 μM is reported as score 1; a compound showing more than 50% inhibition at 5 μM is reported as score 3.

PC3 cells = test: EB1 Comet (microtubule disruption) assay; conditions: 1 hour treatment
Description: The Eb1 Comet assay relies on the detection of the Eb1 protein at the plus end of polymerizing microtubules (Mimori-Kiyosue, 2000) using indirect immunofluorescence. Disruption of microtubule dynamics through de-polymerization or stabilization results in a de-localization of Eb1 from the growing microtubule ends and this is visualized by the disappearance of Eb1 containing cytoplasmic foci.
Briefly, human prostate cancer PC3 cells obtained from the American Type Culture Collection were grown in 96-well plates (Greiner, cat. no. 655090) in HAM's F12 medium as recommended by the provider (ATCC). The cells were treated for 1 hour at 37° C. with compounds dissolved in DMSO (0.6% final DMSO concentration). The culture medium was then removed by aspiration and the cells were fixed by adding cold methanol (−20 C). After a 15 min. incubation at −20 C, the cells were washed twice with DPBS (Gibco) containing 0.5% Triton X-100. Mouse Eb1 antibody (BD Transduction Laboratories, cat. no. 610534) was added to the cells (1/250 dilution in DPBS containing 1% BSA) and incubated overnight at room temperature. […] Compound dependent microtubule disruption was visually determined by the disappearance in Eb1 foci. The lowest active concentration (LAC) was determined as the concentration where Eb1 foci were absent in at least 50% of the treated cells.

PC3 antiproliferative activity pIC50 (PC-3 cells) | HCT116 antiproliferative activity pIC50 (HCT116 cells) | SMILES | tubulin polymerisation score (tubulin) | EB1 pLAC (PC3 cells)
6.7 | 6.8 | CCc1cc2ccc(C(C)(C#N)Cc3cccc([N+](=O)[O-])c3)cc2[nH]c1=O (stereo not shown) | – | –
7.0 | 7.2 | CCc1cc2ccc(C(C)(C#N)C3CCc4c(Cl)ccnc43)cc2[nH]c1=O (single isomer, unassigned) [246] | 3 (a compound showing more than 50% inhibition at 5 μM is reported as score 3) | 8
6.6 | 6.7 | CCc1cc2ccc(C(C)(C#N)C3CCc4c(Cl)ccnc43)cc2[nH]c1=O (single isomer, unassigned) [247] | 3 (a compound showing more than 50% inhibition at 5 μM is reported as score 3) | 7
